From US20220291215A1, “METHODS OF IDENTIFYING T CELL RECEPTORS” (published 2022) come the findings set out here.

Usually EC50 (read off the curve) stands for the concentration at which the effect is half-maximal.

Where two headings read alike, the source gives them in different places.

Assay [1] addresses memory CD4+ T cells from DP4+ donors, unstimulated (a small subset; their TCRs). As to the kind of experiment: flow cytometry ex vivo; 53379 evts in the dimer- CD4+ gate. For orientation: A flow cytometer gives signals particle by particle.
Assay [2] shares this target. Kind of assay: flow cytometry ex vivo; 68024 evts in the dimer- CD4+ gate.
The target is the same in assay [3]. Kind of assay: flow cytometry ex vivo; 119870 evts in the dimer- CD4+ gate.
The target is the same in assay [4]. As to the kind of experiment: flow cytometry ex vivo; 64371 evts in the dimer- CD4+ gate.
The target is the same in assay [5]. As to the kind of experiment: flow cytometry ex vivo; 156509 evts in the dimer- CD4+ gate.
For assay [6], the target named is DQ5 (DQA1*01:01-DQB1*05:01)-restricted DDX3Y-specific TCR (E6).
For assay [7], the target named is DP4/MAGE-A3243-258 TCR, clone R12C9. Kind of assay: flow cytometry, TCR-transduced primary T cells.
Assay [8] has the same target. Kind of assay: flow cytometry, TCR-transduced CD4+ T cells.
Assay [9] addresses endogenous (untransduced) NY-ESO-1157-170 specific CD4+ T cells (their TCRs). Kind of assay: flow cytometry, stimulated donor CD4+ T cells.
For assay [10], the target named is DQ5 (DQA1*01:01-DQB1*05:01)-restricted DDX3Y-specific TCR (E6). This is another data set of the same source.
Assay [11] has the same target. The source holds these as a separate data set.
Assay [12] has as its target stimulated CD4+ T cells of a DQ5.1+ melanoma patient (their TCRs).
In assay [13] the target is DP4^L112W/V141M on K562 cells / K562-based aAPCs (human) (UniProt P20036). Kind of assay: flow cytometry, aAPCs.
The target of assay [14] is DQ5 (DQA1*01:01-DQB1*05:01)-restricted DDX3Y-specific TCR (E6). The source holds these as a separate data set.

On to “CLIP DP4^L112W/V141M dimer (peptide-MHC)”, for which the events in the dimer+ CD4+ gate came to 1 evts in assay [1]; 0 evts in [2]; 1 evts in assay [3]; 1 evts in [4]; 1 evts in [5].
Turning to “CLIP dimer, DQ5^L114W/V143M (peptide-MHC)”, the percent multimer-positive CD4+ cells (number at the gate) in assay [6] came to 0.1%.
Substance “DP4^L112W/V141M dimer loaded with MAGE-A3243-258 (peptide-MHC)” returned a % dimer+ CD4+ cells in assay [7] of 25.6%. The substance also registered a % dimer+ Vβ22+ cells in [8] of 35%.
Take “DP4^L112W/V141M dimer loaded with NY-ESO-1157-170 (peptide-MHC)”: the % dimer+ CD4+ cells in assay [9] turned out to be 2.3%; in [7], 0.4%.
As to “DP4^L112W/V141M dimer loaded with WT1328-348 (peptide-MHC)”, the % dimer+ CD4+ cells in assay [7] worked out at 0.5%.
As to “DQ5^L114W/V143M dimer loaded with DDX3Y171-190 (peptide-MHC)”, the percent multimer-positive CD4+ cells (number at the gate) in assay [10] came out at 18.4%.
Take “DQ5^L114W/V143M+4reps dimer loaded with GPC3138-157 (from UniProt P51654 138-157) (peptide-MHC)”: the values for the percent multimer-positive CD4+ cells (number at the gate) (in [11]; in [12]; with DQ5-06-GPC3138-157 TCR) were 0.1%, 0.2% and 63.1%, respectively.
DR1 dextramer (PE), CLIP (peptide-MHC) displayed a percent multimer-positive CD4+ cells (number at the gate) with DR1-restricted TCR HA1.7 of 0.1%.
As for “NY-ESO-1157-170 DP4 dextramer (peptide-MHC)”, the % dextramer+ CD4+ cells in assay [9] was found to be 0.4%.
In assay [13], “soluble CD4 (sCD4): human CD4 extracellular domain fused with a 6xHis tag via a GS linker, dimerized with a PE-labeled anti-6xHis tag mAb (from UniProt P01730 26-396) (receptor)” gave a concentration for a half-maximal effect (EC50 (read off the curve)) of 100 nM.
In the case of “wild-type DQ5 dimer loaded with DDX3Y171-190 (peptide-MHC)”, in [14], the percent multimer-positive CD4+ cells (number at the gate) was 0%.
